In the test the target is T1, ferroportin (Homo sapiens, UniProt Q9NP59).
T1 sequence (Q9NP59 1-571): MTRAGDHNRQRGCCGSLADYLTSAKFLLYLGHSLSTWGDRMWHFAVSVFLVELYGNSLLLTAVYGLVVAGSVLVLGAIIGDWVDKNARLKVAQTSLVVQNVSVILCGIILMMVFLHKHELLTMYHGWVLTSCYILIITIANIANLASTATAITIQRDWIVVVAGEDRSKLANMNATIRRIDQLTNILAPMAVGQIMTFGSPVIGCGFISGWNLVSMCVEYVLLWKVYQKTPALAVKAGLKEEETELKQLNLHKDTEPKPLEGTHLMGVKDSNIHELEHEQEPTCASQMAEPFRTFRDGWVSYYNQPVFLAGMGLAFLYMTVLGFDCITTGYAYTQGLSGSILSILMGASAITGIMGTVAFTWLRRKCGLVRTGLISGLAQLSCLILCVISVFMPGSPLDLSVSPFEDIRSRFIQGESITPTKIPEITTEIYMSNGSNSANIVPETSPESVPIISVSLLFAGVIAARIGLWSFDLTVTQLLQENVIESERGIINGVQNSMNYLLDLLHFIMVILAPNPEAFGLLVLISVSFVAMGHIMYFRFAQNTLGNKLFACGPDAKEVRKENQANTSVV
Description: T47D cell-based ferroportin internalization assay in presence of mouse serum albumin (MSA), AF647 detection peptide, flow cytometry. Also noted: a human breast carcinoma adherent cell line which endogenously expresses ferroportin; host or cells: T47D. Conditions: second Table 6D, T47D/MSA data; with mouse serum albumin. The method, then: The potency of the peptides in causing ferroportin internalization was evaluated in a T47D cell-based assay. […] In this internalization assay, the potency of the test peptides was evaluated in presence of serum albumin which is the main protein component in the blood. T47D cells were maintained in RPMI media (containing required amount of fetal bovine serum) and regularly sub-cultured. […] The test peptide dilution series were allowed to incubate at room temperature for 30 min. Then the media was aspirated from the 96-well cell plate and test peptide dilution series were added. After 1 hr incubation, the media with test peptides was aspirated out and A1F647-conjugated detection peptide was added at fixed concentration of 200 nM. […] The cells were washed again after a 2 hr incubation in preparation for flow cytometry analysis. The Median Fluorescence Intensity (MFI) of the AF647-positive population was measured (after removing dead cells and non-singlets from the analysis). The MFI values were used to generate a dose-response curve and obtain IC50 potencies for the test peptides. The IC50 potencies were calculated by using 4-parameter non-linear fitting function in Graphpad Prism (Table 6D).
For orientation: A flow cytometer gives signals particle by particle.

Usually IC50 stands for the concentration needed to halve the response being measured.

In the case of `CCCCCCCCCCCCCCCC(=O)NCCCCCC(=O)NCCCC[C@H](NC(=O)C[C@H](Cc1ccccc1)NC(=O)[C@@H]1CCC(=O)NCCCC[C@H](NC(=O)CC(C)C)C(=O)N[C@@H]([C@@H](C)O)C(=O)N[C@@H](Cc2c[nH]cn2)C(=O)N[C@@H](C(c2ccccc2)c2ccccc2)C(=O)N2CCC[C@H]2C(=O)N1)C(N)=O` [compound 311], the concentration for half-maximal inhibition (IC50) was determined as 15.6 nM.

Consider `CCCCCCCCCCCCCCCC(=O)NCCCCCC(=O)NCCCC[C@H](NC(=O)[C@@H]1CCC(=O)NCCCC[C@H](NC(=O)CC(C)C)C(=O)N[C@@H]([C@@H](C)O)C(=O)N[C@@H](Cc2c[nH]cn2)C(=O)N[C@@H](C(c2ccccc2)c2ccccc2)C(=O)N2CCC[C@H]2C(=O)N1)C(N)=O` [compound 312], for which the IC50 came out at 101 nM.

Values taken from patent US20240066131A1 (Protagonist Therapeutics, Inc., priority 2020, published 2024).
